Among the data in ChEMBL document CHEMBL1153815, “Mapping the ribonucleolytic active site of bovine seminal ribonuclease. The binding of pyrimidinyl phosphonucleotide inhibitors” (Eur J Med Chem, 2009) are Ki values, retold here.

In general, Ki refers to the equilibrium dissociation constant of an inhibitor or competing ligand from its target.

The target of this experiment is T1, Seminal ribonuclease (Bos taurus, UniProt P00669).
T1 sequence (P00669 whole entry): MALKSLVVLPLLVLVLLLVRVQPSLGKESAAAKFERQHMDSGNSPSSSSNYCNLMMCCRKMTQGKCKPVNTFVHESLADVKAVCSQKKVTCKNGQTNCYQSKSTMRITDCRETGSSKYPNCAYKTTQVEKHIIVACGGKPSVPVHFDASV
Description: Inhibition of bovine seminal ribonuclease assessed as enzyme activity by spectrophotometric method at pH 6.

With `O=c1ccn([C@@H]2O[C@H](COP(=O)(O)OP(=O)(O)O)[C@@H](O)[C@H]2O)c(=O)[nH]1` [URIDINE_DIPHOSPHATE], the Ki stood at 1050 µM.
